This note sets out measurements from patent US11618758B2, “Bicyclic and tricyclic pyrimidine tyrosine kinase inhibitors with antitubulin activity and methods of treating a patient” (Duquesne University of the Holy Spirit, priority 2011, dated 2023).

The chains behind the UniProt entries cited, without tags or fusion partners. Residues count along the entry.
UniProt P09619, 33-1106, species assumed: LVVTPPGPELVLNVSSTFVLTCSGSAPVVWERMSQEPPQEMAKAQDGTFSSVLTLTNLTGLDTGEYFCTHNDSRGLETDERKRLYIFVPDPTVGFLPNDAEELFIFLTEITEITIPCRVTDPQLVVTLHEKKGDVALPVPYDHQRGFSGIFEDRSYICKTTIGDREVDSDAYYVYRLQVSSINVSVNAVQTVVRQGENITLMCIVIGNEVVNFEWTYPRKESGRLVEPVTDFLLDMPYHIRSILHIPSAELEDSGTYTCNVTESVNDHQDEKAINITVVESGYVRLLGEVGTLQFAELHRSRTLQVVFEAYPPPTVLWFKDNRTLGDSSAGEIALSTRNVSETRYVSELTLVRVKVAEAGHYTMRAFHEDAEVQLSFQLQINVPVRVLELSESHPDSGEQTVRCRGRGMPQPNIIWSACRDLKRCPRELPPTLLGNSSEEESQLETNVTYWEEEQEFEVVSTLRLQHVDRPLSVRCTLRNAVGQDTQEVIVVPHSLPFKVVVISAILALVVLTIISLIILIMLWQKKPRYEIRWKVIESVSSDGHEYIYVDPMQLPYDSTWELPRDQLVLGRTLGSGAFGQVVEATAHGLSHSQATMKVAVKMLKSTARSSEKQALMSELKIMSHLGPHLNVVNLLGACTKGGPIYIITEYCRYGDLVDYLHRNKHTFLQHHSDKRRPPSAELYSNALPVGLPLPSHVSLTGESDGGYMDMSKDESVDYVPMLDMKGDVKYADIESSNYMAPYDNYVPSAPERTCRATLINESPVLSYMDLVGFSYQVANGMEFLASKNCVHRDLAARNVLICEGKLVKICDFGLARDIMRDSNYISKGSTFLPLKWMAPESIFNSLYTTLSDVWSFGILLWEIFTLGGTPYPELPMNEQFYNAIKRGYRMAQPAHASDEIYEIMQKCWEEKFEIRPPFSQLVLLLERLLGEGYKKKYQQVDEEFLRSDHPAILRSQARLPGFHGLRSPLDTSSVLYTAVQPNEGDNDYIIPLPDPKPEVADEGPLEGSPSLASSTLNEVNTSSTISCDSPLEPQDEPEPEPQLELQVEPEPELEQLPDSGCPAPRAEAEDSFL

In this experiment the target is platelet derived growth factor receptor-β (PDGFR-β) (Homo sapiens, UniProt P09619). The experiment is described as follows: Kinase inhibition PDGFRβ. The format is biochemical.

As usually defined, the IC50 is the concentration that inhibits the measured activity by half. In the case of `CN(C)c1ccc(/C=C2\C(=O)Nc3ccccc32)cc1` [DMBI, reference compound], the IC50 was 3.75 µM.
